# Values of other authors in paper PMC10215749, “Determination of the affinity constants for phage display albumin-binding peptides” (PeerJ, 2023).
# Settings: ref Varshney et al. (2010); Dennis et al., 2002; Larsen et al., 2016; Cho et al., 2022; cited from earlier work
# Source text: Human serum albumin (HSA) is a 67 KDa globular protein with a concentration of 3.4 to 5.4 g/dL in blood, accounting for about 60% of the total protein in blood serum. Its long half-life, 19∼20 days, makes HSA an ideal carrier to extend the half-lives of therapeutic proteins ([Varshney et al., 2010]; [Dennis et al., 2002]; [Larsen et al., 2016]; [Cho et al., 2022]). Both HSA fusion and HSA binding technologies have been developed to reduce the clearance rate of peptide and protein drugs. HSA fusion technologies, e.g. granulocyte colony-stimulating factor-HSA (Albugranin) ([Halpern et al., 2002] ...
substance,measurement,value
HSA: 67 KDa globular protein,half-life,19∼20 days
